## Yeast mating assay B: variants of the scFv Ab-14

Data: MIT Lincoln Laboratory AlphaSeq set, Li et al. 2023, doi:10.1038/s41467-023-39022-2, as distributed in FLAb.

Target peptide (SARS-CoV-2 spike, HR2 region): PDVDLGDISGINAS

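The parent was found by panning a naive human phage display library on the peptide. These sequences belong to a second round, designed from the earlier measurements on random variants of the parent. Their group label is 14L_Ctrl (Ctrl: baseline library sampled from a position-specific scoring matrix, with some repeated check sequences). AlphaSeq pools MATa yeast showing the antibodies with MATalpha yeast showing the peptide. Binding brings cells together so that they mate, and sequencing counts the barcode pairs among the diploids. Read counts were normalised to the haploid input and turned into Kd by a linear fit to BCL2-family pairs of known affinity, for each replicate. Mating was done six times.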

The variants keep the heavy chain, the linker and the frameworks of Ab-14 (scFv order VH, a (GGGGS)3 linker, VL).
VH: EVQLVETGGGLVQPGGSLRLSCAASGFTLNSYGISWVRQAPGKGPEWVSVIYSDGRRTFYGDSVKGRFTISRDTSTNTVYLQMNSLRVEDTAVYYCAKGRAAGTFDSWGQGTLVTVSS
VL: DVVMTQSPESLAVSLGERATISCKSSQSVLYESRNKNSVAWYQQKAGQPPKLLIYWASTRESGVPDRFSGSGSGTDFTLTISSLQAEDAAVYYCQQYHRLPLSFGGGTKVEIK

Variants are written as CDR1, CDR2 and CDR3 of the light chain (limits as in the source). Parent: KSSQSVLYESRNKNSVA, WASTRES, QQYHRLPLS.
Scale: log10 of Kd in nM, estimated from mating counts; low values are strong binders.
Averages over replicates are reported, and they cover detected replicates only.
A pair that was not seen in that replicate is written "n.d."; this usually means weak binding, but a binder can also be missed.
The authors' rule: three or more of the six replicates give a measured affinity, fewer mean a poor binder.
A sequence measured in both rounds can read differently, since the two assays cover different ranges.
Background: pairings of all light chain designs with three empty control strains gave a value in 4% of cases (median 2.64, 5th percentile 1.59). Values in that range, when seen in few replicates, are hard to tell from nonspecific mating. Also given: how often the same scFv was detected with the empty control strains, with their mean in brackets.
The parent sequence was in this pool as ten entries: three were never detected, three once, and four in most replicates, with averages from 0.34 to 2.37.

CDR-L1 | CDR-L2 | CDR-L3 | replicates, log10 nM | log10 Kd (nM), mean | empty controls
KVSQSVLQESRNKNSVA | DASIRES | QQYHRLPLS | 0.28 -0.15 -0.22 -0.31 -0.30 0.00 | -0.12 | 1 of 18 (2.28)
KSSQSVPYESRNKNSVA | SASTRES | QQYHRLPNS | 0.67 0.55 0.26 0.47 0.26 0.74 | 0.49 | 0 of 18
KSSQSVLYESTNKNSVA | GASTRES | QQYHRLPLS | 0.50 0.24 0.31 0.06 0.23 0.41 | 0.29 | 2 of 18 (2.52)
KSSQSVLYESRNKNSVA | WASTRES | QHYHRLPLS | n.d. n.d. n.d. n.d. n.d. n.d. | n.d. | 1 of 18 (2.56)
KIAQEVWMESRNTNSVA | KASTRES | QQYHRLPLS | 0.68 0.33 0.32 0.31 0.69 0.58 | 0.49 | 0 of 18
KTSYSVLYESRNKNSVA | WASTRES | QQYARLPLS | 1.43 2.28 1.47 1.82 1.77 2.48 | 1.88 | 0 of 18
KMSQSVLYEWRNKNSVA | WAETRES | QQYHRLPLS | 1.49 0.87 1.48 1.72 2.13 1.30 | 1.50 | 1 of 18 (2.09)
KSSQSVLDESHNKNSVA | WASTRES | QQYHRLPLC | 0.89 0.72 0.66 0.67 1.01 1.08 | 0.84 | 2 of 18 (2.71)
KMSMSWLYESRNKNSVA | WASTRES | QQYARLPLS | 0.74 0.58 0.68 0.60 0.70 0.80 | 0.68 | 1 of 18 (2.86)
KSSQSVDYESRNKNGIA | WASTRFS | QQYHRLPLS | 1.92 1.76 n.d. n.d. 1.53 1.73 | 1.73 | 1 of 18 (2.80)
KSSQSVLYESRNKNSVA | WASDRES | QQYHRLPLS | n.d. n.d. n.d. n.d. n.d. n.d. | n.d. | 0 of 18
KCSQSVEYHSRNKNSVA | WASTRES | QQYIRLPLP | n.d. n.d. n.d. n.d. n.d. n.d. | n.d. | 0 of 18
KSSQSVLVECRNKNSVA | TASTRES | QQYTRLPLS | n.d. n.d. n.d. n.d. n.d. n.d. | n.d. | 0 of 18
KSSQSLLYEDRNKNSVA | WASTLES | QQYHRLPLS | 1.50 0.74 1.05 0.95 1.02 1.02 | 1.05 | 1 of 18 (2.09)
KSSQEVLYESRSKNSVA | AASTRES | QQYWRLPLS | 0.93 0.08 0.23 0.25 0.15 0.36 | 0.34 | 0 of 18
KSSHSVLYESRNKNSVA | GASTRES | QQYHRLPLS | 0.93 1.07 1.08 0.94 1.13 2.11 | 1.21 | 0 of 18
KSSQSVLYESRNLNSVA | WATTRES | QQYHRLPLS | 2.09 1.72 1.73 2.34 2.52 2.39 | 2.13 | 4 of 18 (3.45)
KSSQSVLYESRNKNWVA | WCSTRVQ | FQYHRLPLS | n.d. n.d. n.d. n.d. n.d. n.d. | n.d. | 0 of 18
KSSLSVLKESRNKNSVA | WASTREV | QQYHRLPLS | 1.70 2.21 n.d. 2.74 1.69 1.80 | 2.03 | 3 of 18 (2.20)
KLSQSVLYESRNDNSVA | WASTRES | QQYHRLPLS | 1.60 0.75 1.22 1.08 2.18 1.61 | 1.41 | 0 of 18
KSQQSVLYEDRNKNSVA | WASTRES | QQYHTLPLS | 2.12 2.23 n.d. 2.86 1.81 n.d. | 2.26 | 1 of 18 (3.84)
KMSQSVSYESRNKNSVA | SASTRES | QQVHRYPLS | 1.10 0.94 2.47 1.37 0.74 1.68 | 1.39 | 0 of 18
KYSQSVQTHSRNANNVA | WASTRES | QQYHRLPLS | 1.84 1.46 1.45 1.30 1.52 1.09 | 1.44 | 0 of 18
KSSQSVLNESSNKNSVA | WASTRES | QQYHRLPLS | 1.48 1.00 1.16 1.31 1.05 1.16 | 1.19 | 0 of 18
KSSQSVYAESRNKNSVA | WASTREP | QKYHRLNTS | 3.07 2.18 1.79 2.31 2.25 2.29 | 2.31 | 2 of 18 (3.39)
KSSQSVLYESDNKNSVA | ADSTRES | QQYHRLPLS | n.d. n.d. n.d. n.d. 1.58 n.d. | 1.58 | 0 of 18
KSSQSVLYESRNKNSLA | WASTRES | DQYHQLPLS | n.d. n.d. n.d. n.d. n.d. n.d. | n.d. | 0 of 18
KSSQSVLYDSRNKNSVA | DASTRES | QHYHRLPLS | 0.57 0.27 0.36 0.29 0.45 0.46 | 0.40 | 1 of 18 (2.55)
KLSQSVLYEERNKNSVA | AASTRES | QQYHRLPLS | 0.08 -0.35 -0.61 -0.82 -0.41 0.12 | -0.33 | 0 of 18
KSSTSVLYESRNKNGVA | WATTRES | QQYHRLPWS | 1.70 n.d. n.d. n.d. n.d. n.d. | 1.70 | 0 of 18
KSSQSVLYERRNKNNVA | GSSTREL | QQYHRLPLS | 0.96 1.47 1.15 1.02 1.19 1.10 | 1.15 | 1 of 18 (2.99)
KSSQSVLYESRNKNSVA | KASTRES | QQYHCLPLS | 1.07 n.d. n.d. n.d. n.d. n.d. | 1.07 | 0 of 18
KSSQSILYESGNKNSVA | WASTREI | QQYHRLPLS | 1.43 0.67 0.93 1.08 0.98 0.94 | 1.01 | 0 of 18
KNSQSVLYESRNKNSVA | HASTRES | QQYHRLPLS | 0.94 0.99 0.38 0.11 0.61 0.88 | 0.65 | 2 of 18 (2.68)
KSSQSMLYESRNKNSVA | WASTREH | QQYHRWPLS | 2.18 2.63 2.32 n.d. 2.14 1.65 | 2.18 | 1 of 18 (3.05)
KSVQSVLYESLNKNSVA | WASTRES | QQYHRLCLS | n.d. n.d. n.d. n.d. n.d. n.d. | n.d. | 0 of 18
KSSQPVLYESRNKNSVA | WASTRES | QLYHRLPLS | n.d. n.d. n.d. n.d. n.d. 2.88 | 2.88 | 0 of 18
KSSRSVTYGSRNGNSVA | WASTRES | QLYHRLPLS | n.d. n.d. n.d. n.d. n.d. n.d. | n.d. | 1 of 18 (2.03)
KSSQSTLYETRNKNSVA | WASTRES | QQYHRLPLS | n.d. 1.63 1.94 1.63 3.45 1.15 | 1.96 | 1 of 18 (2.38)
KSSQSVLYEGREKNSVA | WASTRES | QQYHRLPLS | 1.74 1.37 2.03 1.55 1.29 1.48 | 1.57 | 0 of 18
KSSQSVLTTSENCNSVA | WASTRES | QQYHRLPLS | 2.34 1.86 1.52 1.78 1.75 1.40 | 1.78 | 1 of 18 (2.78)
KSSQSVLYEHRNTNSVA | WASTRES | QQYHRLPLS | n.d. 0.76 1.66 1.43 1.65 1.99 | 1.50 | 1 of 18 (2.05)
KDSQSVLYESLNKNSVA | WASTRES | QQYHRLPLS | n.d. n.d. n.d. 0.95 2.02 n.d. | 1.48 | 0 of 18
KWEQSDNYESRNKNSVA | WASTRES | QQYHRLPLS | n.d. 2.07 n.d. n.d. n.d. 2.31 | 2.19 | 0 of 18
KSSQSVLDESRNKNSVA | WASTRES | QQYHWLPLS | n.d. 1.24 0.93 0.83 1.53 1.48 | 1.20 | 0 of 18
KSSQSVLYLSRNKNSVA | WASTRES | QQYHRLPLS | n.d. n.d. n.d. n.d. n.d. n.d. | n.d. | 0 of 18
ASSQSVLYESRNKNSVA | HIGERES | QQYHRWPLS | n.d. n.d. n.d. n.d. n.d. n.d. | n.d. | 0 of 18
KSSPSVLYESLNKNSVA | WASTRES | QQYHRLPPE | n.d. n.d. n.d. n.d. n.d. n.d. | n.d. | 0 of 18

A selection of 3 entries from above:

CDR-L1 | CDR-L2 | CDR-L3 | replicates, log10 nM | log10 Kd (nM), mean | empty controls
KYSQSVQTHSRNANNVA | WASTRES | QQYHRLPLS | 1.84 1.46 1.45 1.30 1.52 1.09 | 1.44 | 0 of 18
KSSQSVLYEGREKNSVA | WASTRES | QQYHRLPLS | 1.74 1.37 2.03 1.55 1.29 1.48 | 1.57 | 0 of 18
KSSQSVLYESRNLNSVA | WATTRES | QQYHRLPLS | 2.09 1.72 1.73 2.34 2.52 2.39 | 2.13 | 4 of 18 (3.45)